{"source": "patent US20220142566A1", "about": "“CLOSED-LOOP DETECTION AND TREATMENT OF RADIATION AND TOXIC AGENTS” (published 2022)", "tested_on": "Yorkshire pigs", "assay": "white blood cell counts after delivery of sargramostim in vivo", "conditions": "FIG. 17"}
{"substance": "sargramostim", "values": [{"measurement": "WBC count over time (effectiveness of delivery)", "setting": "single 250 microgram dose into the gastric wall of anesthetized pigs via drug release component of endoscopically placed SOMA article, CBCs daily for 7 days", "result": "effective"}, {"measurement": "WBC count compared with a dose administered subcutaneously", "setting": "single 250 microgram dose via SOMA drug release component vs single 250 microgram subcutaneous dose", "result": "not identical to a dose administered subcutaneously"}]}
